scFv variants of Ab-14 (heavy chain) against a SARS-CoV-2 spike peptide

Source: Engelhart et al. 2022 (doi:10.1038/s41597-022-01779-4), MIT Lincoln Laboratory and A-Alpha Bio; data file from the FLAb repository.

Binding partner: SARS-CoV-2 spike HR2 peptide, sequence PDVDLGDISGINAS.

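The starting antibody came from a phage panning campaign against this peptide. AAYL49 was designed without a model: most single CDR substitutions and a random sample of double and triple ones. The assay is AlphaSeq: two haploid yeast populations carry antibody and antigen on their surface. Mating (16 h, 30 °C) was followed by selection of diploids and sequencing of their barcodes. Read counts were normalised to the haploid input and turned into Kd by a linear fit to BCL2-family pairs of known affinity, for each replicate. The assay was run in three technical replicates.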

Each scFv is VH, a (GGGGS)3 linker, VL, as in the parent Ab-14, and differs from it in the CDRs of the heavy chain only.
VH: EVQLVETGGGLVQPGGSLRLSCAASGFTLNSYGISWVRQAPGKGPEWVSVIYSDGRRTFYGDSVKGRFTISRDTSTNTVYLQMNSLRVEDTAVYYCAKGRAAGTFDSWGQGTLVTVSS
VL: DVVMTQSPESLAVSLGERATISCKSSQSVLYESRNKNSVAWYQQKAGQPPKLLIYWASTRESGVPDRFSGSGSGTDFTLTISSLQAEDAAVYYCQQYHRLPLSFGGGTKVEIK

The parent's heavy chain CDRs are GFTLNSYGIS, VIYSDGRRTFYGDSVK, GRAAGTFDS; each variant's own CDRs replace them letter for letter. This list gathers variants with a substitution at D106 (VH, numbered from residue 1). Values are log10 of the apparent Kd in nM; lower means stronger binding. Replicates are averaged; those with no signal do not enter the mean. Where no diploid with the target was found in that replicate, the entry reads "nd": below detection, most likely a poor binder, though not proof of it. Nonspecific signal, from three strains lacking the peptide, appeared in 15% of pairings of library AAYL49, centred on 4.06 (5% of these signals below 2.83); values are not corrected for it. The control count says in how many pairings with the empty strains this scFv gave a signal, with their mean in brackets. For reference, the parent read 0.65 as the reference entry and 4.11 (one replicate of three) as a member of this library.

| CDR-H1 | CDR-H2 | CDR-H3 | log10 Kd, replicates | mean log10 Kd (nM) | control signals |
|---|---|---|---|---|---|
| GFTLNSLGIS | VIYSDGRRTFYGDSVK | GRAAGTKCS | nd 3.21 5.91 | 4.56 | 2/9 (4.28) |
| GFTLNSYGIS | VIYSDGRRTFYGTSVK | DRAAGTFGS | nd 4.21 nd | 4.21 | 1/9 (4.41) |
| GFTLNSYGIS | VIYSDGRRTFYGDSVK | QRAAGIFES | nd nd 3.82 | 3.82 | 3/9 (3.85) |
| GFTLNSYGIS | VIYSDGEATFYGDSVK | GRAAGTFLS | nd nd 5.55 | 5.55 | 1/9 (3.34) |
| GYTLNSYGIS | VIYSDGRRTFYGDSVK | ERAAGTFYS | nd nd 2.63 | 2.63 | 0/9 |
| GFTLNSYGIS | VIYSDGRRTFYGDSVR | GRAAGTFRN | 0.88 1.14 1.21 | 1.08 | 1/9 (3.65) |
| GFTTNSYGIS | VIYSDGRRTFYGDSVK | GRADGTFWS | nd nd nd | nd | 0/9 |
| GFTLNSYGIS | VIYSDGRNTFIGDSVK | GRAAGTFKS | 3.04 nd nd | 3.04 | 0/9 |
| GFTLNSYGIS | VIYSDHRRTFYGDSTK | GRAAGTFVS | 2.92 nd nd | 2.92 | 2/9 (3.14) |
| GFTLNKYGIS | VIYSDGRRTFYGDSVK | GRAAGTFIW | nd nd nd | nd | 1/9 (2.66) |
| GFTANSYGIS | VIYSDGRRTFYGDSVY | GRAAGTFTS | 3.52 nd nd | 3.52 | 0/9 |
| GFTLNSYYIS | VIYSDGRRTFYGDSVK | GRAAGTPIS | nd 4.28 5.67 | 4.98 | 8/9 (4.61) |
| GFTLNSYGIS | VIYSDGRRYFYGDSVK | GRAASTFKS | nd nd 4.66 | 4.66 | 4/9 (3.99) |
| GFTLNSDGIS | VIYSDGRRTFYGDSVK | GRAAGTFYK | nd nd 1.79 | 1.79 | 0/9 |
| GFTLNSYGIS | VIYSDGFRTFYGDSVK | GRAAGTFFS | 0.37 0.54 0.29 | 0.40 | 0/9 |
| GFTYNSCGIS | VIYSDGRRTFYGDSVK | GRAAGTFIS | nd nd nd | nd | 0/9 |
| GFTLNSYGIS | GIYSDGRRTFYGVSVK | GRAAGTFVS | 3.55 3.26 5.01 | 3.94 | 1/9 (3.68) |
| GFTLNSYGIS | VIYSDGRRTFYHDSNK | GRAAGTFES | nd nd nd | nd | 0/9 |
| GFTLNSYPYS | VIYSDGRRTFYGDSVK | GRAAGTFFS | nd nd nd | nd | 0/9 |
| GETLNSYGIS | VIYSDGRRTFYGDSVK | GRAAYTFHS | 1.13 1.30 1.02 | 1.15 | 3/9 (4.93) |
| GFTLNSAGIS | VDYSDGRRTFYGDSVK | GRAAGTFKS | nd nd 3.80 | 3.80 | 1/9 (4.67) |
| GFTGNSYGIS | VIYSDGRRMFYGDSVK | GRAAGTFPS | nd nd nd | nd | 0/9 |
| GFTLNSYGIS | VIYSMGRRTFYGNSVK | GRAAGTFTS | nd nd nd | nd | 0/9 |
| GFTLNSYGIS | VIYSDTRRTFYGDSVK | GRAAGNFFS | nd nd nd | nd | 0/9 |
| GFTLNSYGIP | VIYSDGRRTFYGDSVK | GRAAGTFEK | nd nd nd | nd | 1/9 (4.50) |
| GFTLNSYGIS | VIYSDGRRTFYGDSVE | GRAAGLFMS | 1.00 1.19 0.93 | 1.04 | 0/9 |
| GFTLNSYGIS | VIYSDGRRTFYGDSVK | GRAAGTEFS | 1.96 1.73 2.07 | 1.92 | 3/9 (4.46) |
| GFTLNFYGIS | VIYSDGRRTFYGDSVK | GFAAGTFQS | nd nd nd | nd | 0/9 |
| GFTLNSYYIS | VIYSDGRNTFYGDSVK | GRAAGTFPS | 3.50 nd nd | 3.50 | 1/9 (5.36) |
| GFTLNSYGIS | VIYSDYRRTFYGDSVK | GRAAGTLVS | nd nd nd | nd | 0/9 |
| GFTLNSYGIS | RIYSDGRRTFYCDSVK | GRAAGTFYS | nd nd nd | nd | 4/9 (3.73) |
| GFTLNRYGIS | VIYSDGTRTFYGDSVK | GRAAGTFRS | 0.96 0.99 0.86 | 0.94 | 0/9 |
| GFTFNSYGIS | VIYSDGRRTFYGDSAK | GRAAGTFGS | 2.82 2.48 2.77 | 2.69 | 1/9 (3.94) |
| GFTSNSYGIS | VIYSDGRRTFYGDKVK | GRAAGTFAS | nd 3.14 4.81 | 3.98 | 3/9 (4.47) |
| GVTLNSYGIS | VIYSDKRRTFYGDSVK | GRAAGTFMS | nd nd nd | nd | 0/9 |
| GFTGNSYGIS | VIYSDGRRTFYGDSPK | GRAAGTFIS | 5.78 4.64 4.61 | 5.01 | 7/9 (4.69) |
| GETLNSYGIS | VIYSDGRRTFYGDSVK | GRAAGFFMS | 0.46 0.65 0.98 | 0.69 | 1/9 (4.72) |
| GFTLNSYGIS | VIYSQGRRTFYGDSVK | GRAAGEFVS | nd 3.75 4.59 | 4.17 | 1/9 (4.24) |
| GFTLNSYGIS | VIYIDGRRTFYGDSVK | GRAAGTRWS | nd nd 3.12 | 3.12 | 1/9 (3.46) |

Top 4 of the variants detected in all replicates, tightest first:

| CDR-H1 | CDR-H2 | CDR-H3 | log10 Kd, replicates | mean log10 Kd (nM) | control signals |
|---|---|---|---|---|---|
| GFTLNSYGIS | VIYSDGFRTFYGDSVK | GRAAGTFFS | 0.37 0.54 0.29 | 0.40 | 0/9 |
| GETLNSYGIS | VIYSDGRRTFYGDSVK | GRAAGFFMS | 0.46 0.65 0.98 | 0.69 | 1/9 (4.72) |
| GFTLNRYGIS | VIYSDGTRTFYGDSVK | GRAAGTFRS | 0.96 0.99 0.86 | 0.94 | 0/9 |
| GFTLNSYGIS | VIYSDGRRTFYGDSVE | GRAAGLFMS | 1.00 1.19 0.93 | 1.04 | 0/9 |